We go through two compounds from PubChem BioAssay AID540295 (The Scripps Research Institute Molecular Screening Center, 2011).

Protein sequences, listed by entry. Tags and fused reporters are not part of them.
UniProt P32245, whole entry: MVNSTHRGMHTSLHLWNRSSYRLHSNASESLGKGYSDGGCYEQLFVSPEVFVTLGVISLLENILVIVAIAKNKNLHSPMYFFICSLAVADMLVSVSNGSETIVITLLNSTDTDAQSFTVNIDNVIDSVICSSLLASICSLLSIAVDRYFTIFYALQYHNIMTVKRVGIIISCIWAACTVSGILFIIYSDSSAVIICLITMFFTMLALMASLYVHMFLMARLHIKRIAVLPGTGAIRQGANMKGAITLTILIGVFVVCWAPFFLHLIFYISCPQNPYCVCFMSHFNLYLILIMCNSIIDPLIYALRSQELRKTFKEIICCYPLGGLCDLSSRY

The entries are a selection whose mix differs from that of the whole data set. The source made the active and inactive calls.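 How the source made its calls: active means inhibition above its plate's cutoff, the mean of tested wells on that plate plus 3 SD (cut at about 29% in these data); inactive means the rest.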

In this assay the target is Melanocortin receptor 4 (Homo sapiens) (UniProt P32245). Description: blockers of MC4R Gs-cAMP response – cell-based, TR-FRET, antagonist arm of biased-ligand search, primary screen (AID 540295).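 Further: 0% = Melanotan II alone and 100% = Melanotan II plus saturating MCL0020.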 To be noted: MC4R-expressing cells, MTII-stimulated cAMP, LANCE TR-FRET; at 6.5 µM; hits give high values. For orientation: Time-resolved FRET reads energy transfer from a long-lived donor to a nearby acceptor.
Consider `CCC(=O)N(c1ccccc1)C1(COC)CCN(CCn2nnn(CC)c2=O)CC1`, for which the inhibition (usually the percentage by which the read-out fell short of the control) is inactive: 4.86%.

For `CCC(=O)N(c1ccccc1)C1(COC)CCN(CCc2cccs2)CC1`, the inhibition is inactive: 4.73%.
